Yeast mating assay 2: variants of the scFv Ab-95

Source: Engelhart et al. 2022 (doi:10.1038/s41597-022-01779-4), MIT Lincoln Laboratory and A-Alpha Bio; data file from the FLAb repository.

Target peptide (SARS-CoV-2 spike, HR2 region): PDVDLGDISGINAS

The variants keep the heavy chain, the linker and the frameworks of Ab-95 (scFv order VH, the linker GGGGSGGGGSGGGGS, VL).
VH: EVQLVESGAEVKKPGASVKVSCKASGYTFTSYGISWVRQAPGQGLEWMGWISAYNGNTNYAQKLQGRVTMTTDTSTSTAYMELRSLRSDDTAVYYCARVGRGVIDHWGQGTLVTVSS
VL: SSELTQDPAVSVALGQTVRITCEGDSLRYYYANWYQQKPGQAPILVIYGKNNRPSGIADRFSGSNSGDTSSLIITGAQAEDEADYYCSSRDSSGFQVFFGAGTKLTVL

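Phage display of a naive human antibody library on the peptide gave the parent. Variants in AAYL52 differ from the parent at up to three CDR positions; double and triple changes were sampled at random. The scFvs were displayed on barcoded MATa yeast, the peptide on MATalpha yeast. After mating in shaken culture at 30 °C for 16 h, diploids were selected and their barcode pairs sequenced. The ratio of observed to expected reads was calibrated, replicate by replicate, on BCL2-family standards whose Kd was known from biolayer interferometry. Each pool was mated in three replicate cultures.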

Changes read parent residue, position, new residue, counted from the first residue of the VL shown.
Affinities are written as log10 Kd with Kd in nM; a lower number is a better binder.
A mean of the replicates is given; it leaves out those without a signal.
Where no diploid with the target was found in that replicate, the entry reads "n.d.": below detection, most likely a poor binder, though not proof of it.

| changes | replicates, log10 nM | log10 Kd (nM), mean | signal with controls |
|---|---|---|---|
| S26C/D91R/S92C | n.d. n.d. 4.42 | 4.42 | 2/9 (3.68) |
| R28L/S88C/Q96F | 5.41 n.d. n.d. | 5.41 | 2/9 (3.72) |
| P54N/D91G | 2.88 2.77 2.22 | 2.62 | 7/9 (4.03) |
| D25V/D91H | 3.30 4.28 n.d. | 3.79 | 1/9 (3.94) |
| L27H/N51V/S55K | n.d. n.d. 3.79 | 3.79 | 3/9 (4.64) |
| S92P/Q96E/F98M | 3.17 2.59 2.67 | 2.81 | 3/9 (3.87) |
| S26H/A32S/F98H | 2.57 2.79 2.26 | 2.54 | 3/9 (3.56) |
| K50F/R90I/S93V | 4.10 3.36 3.99 | 3.82 | 2/9 (3.92) |
| R28T/P54W/R90I | n.d. 3.39 n.d. | 3.39 | 2/9 (3.16) |
| L27F/N33K/S92K | 1.80 1.55 1.06 | 1.47 | 3/9 (4.33) |
| S26D/S89D | 3.18 3.31 2.96 | 3.15 | 5/9 (3.59) |
| G24K/L27Y/G94A | 5.08 n.d. n.d. | 5.08 | 3/9 (4.11) |
| Y30L/P54F/V97C | 3.32 n.d. n.d. | 3.32 | 4/9 (3.18) |
| N33G/S93V/G94R | 5.35 4.40 n.d. | 4.88 | 4/9 (4.09) |
| L27V/R53C/V97D | 4.28 n.d. 4.33 | 4.30 | 3/9 (4.11) |
| R28A/Y30C/S92Q | 3.04 3.28 3.24 | 3.18 | 2/9 (3.82) |
| R28D/Y29Q/A32S | 2.81 2.80 2.30 | 2.64 | 6/9 (4.05) |
| Y29Q/G49W/S55C | 4.98 n.d. n.d. | 4.98 | 3/9 (3.42) |
| S88Q/D91Q/F95K | 3.65 n.d. n.d. | 3.65 | 4/9 (3.18) |
| G24Q/S26T/S92T | 5.41 2.82 3.05 | 3.76 | 4/9 (4.24) |
| D25W/A32F | 3.34 5.49 n.d. | 4.42 | 1/9 (3.93) |
| E23T/S26I/Y31P | 3.99 2.82 3.19 | 3.33 | 1/9 (4.43) |
| R28W/Y29D/K50I | 2.68 2.79 2.97 | 2.81 | 4/9 (4.04) |
| G49W/S93D | 3.53 n.d. 3.65 | 3.59 | 5/9 (3.85) |
| R28V/S88K/F95L | n.d. 5.66 n.d. | 5.66 | 4/9 (4.28) |
| S88E/G94M/F95R | 2.52 2.76 2.42 | 2.56 | 4/9 (4.31) |
| R28A/K50H/S89M | 3.56 3.09 2.87 | 3.17 | 2/9 (3.63) |
| L27M/G49N | n.d. 2.84 3.81 | 3.32 | 2/9 (5.05) |
| L27K/S89A/D91L | n.d. n.d. n.d. | n.d. | 1/9 (2.09) |
| Y31P/N52G/S88P | 1.72 1.63 1.29 | 1.55 | 2/9 (4.60) |
| Y29H/Y30S/S93Q | 1.94 2.63 1.87 | 2.15 | 1/9 (4.01) |
| D25R/G49L/S88G | 3.43 n.d. 4.50 | 3.97 | 2/9 (3.53) |
| Y30A/P54A/S93D | 2.08 1.76 1.66 | 1.83 | 4/9 (3.65) |
| N33G/R90S/S92C | n.d. 5.10 n.d. | 5.10 | 2/9 (4.23) |
| G49K/P54F/S89L | 4.20 n.d. n.d. | 4.20 | 3/9 (3.47) |
| G24W/N51V/V97N | n.d. 5.66 3.65 | 4.66 | 5/9 (3.90) |
| D25Y/L27R/K50W | n.d. n.d. 4.46 | 4.46 | 2/9 (4.68) |
| G24H/S26M/K50G | 3.28 3.27 2.89 | 3.15 | 1/9 (4.98) |
| D25Q/Y31R/F98H | 2.97 3.15 3.06 | 3.06 | 2/9 (4.55) |
| K50I/F95W/V97R | 3.33 4.15 2.92 | 3.47 | 2/9 (4.30) |

The closing 3 entries, repeated:

{"changes": "G24H/S26M/K50G", "replicates, log10 nM": "3.28 3.27 2.89", "log10 Kd (nM), mean": "3.15", "signal with controls": "1/9 (4.98)"}
{"changes": "D25Q/Y31R/F98H", "replicates, log10 nM": "2.97 3.15 3.06", "log10 Kd (nM), mean": "3.06", "signal with controls": "2/9 (4.55)"}
{"changes": "K50I/F95W/V97R", "replicates, log10 nM": "3.33 4.15 2.92", "log10 Kd (nM), mean": "3.47", "signal with controls": "2/9 (4.30)"}

Three control strains display no target. For library AAYL52, 28% of the pairings with them gave a signal, with a median of 3.91 and one signal in twenty below 2.90, so weak values seen in few replicates may be background. Also given: how often the same scFv was detected with the empty control strains, with their mean in brackets.